In article PMC10252837, “A Novel Time-Resolved Fluorescence Resonance Energy Transfer Assay for the Discovery of Small-Molecule Inhibitors of HIV-1 Tat-Regulated Transcription” (International Journal of Molecular Sciences, 2023):

Test system: HIV-1NL4-3
Test: HIV-1 infectivity in TZM-bl cells (LTR-driven F-Luc)
Assay type: cell-based
Description: (A) (Upper panel) Doxycycline (Dox)-inducible Tat-expressing bl-DTR cells cultured in 96-well plates treated with two-fold serial dilutions of each compound in the presence of Dox (50 ng/mL). At 24 h after treatment, the activity of firefly luciferase (F-Luc), indicating Tat activity, was determined as described in the Materials and Methods section. (Bottom panel) TZM-bl cells were treated with two-fold serial dilutions of the indicated compound and then infected with the HIV-1NL4-3 strain at a multiplicity of infection (MOI) of 1. At 24 h after infection, the viral infectivity and cell viability were determined as described in the Materials and Methods section. […] At 24 h after treatment, LTR promoter activity was determined via a Bright-Glo Luciferase Assay Kit. […] The mobility of biotinylated TAR RNA was detected by chemiluminescence.
To determine the inhibitory effect of hit compounds on HIV-1 infection, we used TZM-bl cells (also referred to as JC53BL-13), which express HIV-1 receptors and contain the LTR-driven F-Luc gene controlled by HIV-1 infection, as described previously but with some minor modifications. […] At 24 h after infection, the inhibitory effect of the hit compounds on infectivity was determined using the Bright-Glo Luciferase Assay Kit (Promega). The dose–response data are expressed as a relative percentage compared to the DMSO control (vehicle). […]

SMILES: CN1C/C=C/CCOc2cccc(c2)-c2ccnc(n2)Nc2cccc(c2)C1 [Hit 460-G06, (E)-6-methyl-12-oxa-3,6-diaza-2(4,2)-pyrimidine-1,4(1,3)-dibenzenacyclododecaphan-8-ene]
- SI (selectivity index): 380.000
